The source of these data is PubChem BioAssay AID2177 (The Scripps Research Institute Molecular Screening Center, 2009).

Chains of the proteins cited; added tags and fusions are not shown.
UniProt O95372, whole entry: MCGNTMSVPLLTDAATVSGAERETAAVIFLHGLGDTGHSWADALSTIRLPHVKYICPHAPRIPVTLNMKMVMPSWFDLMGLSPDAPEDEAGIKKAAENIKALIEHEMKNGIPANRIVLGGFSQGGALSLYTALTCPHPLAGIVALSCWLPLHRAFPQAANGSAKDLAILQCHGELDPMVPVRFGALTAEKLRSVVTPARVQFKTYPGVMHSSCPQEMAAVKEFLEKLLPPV

The list shows a part of the results, in another mix than the full data. Calls of active or inactive are those of the source.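 Rule for the calls: active = inhibition above the screen-wide mean plus 3 SD, limit set per campaign (cut at about 26% in these data); inactive = the rest.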

The term inhibition denotes the change of the read-out against control, counted positive when it falls.

This test deals with Acyl-protein thioesterase 2 (Homo sapiens) (UniProt O95372). Nature of the test: inhibition of human lysophospholipase 2 – biochemical, fluorescence polarization, FP-Rh probe ABPP, counter-screen for PME1 inhibitor project, primary screen (AID 2177).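 Note: 0% = LYPLA2 with DMSO and 100% = wells lacking LYPLA2 enzyme.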 The conditions noted are these: recombinant LYPLA2, FP-Rh probe fluorescence polarization; at 5.9 µM; stronger effect = higher value. On the technique in general: Fluorescence polarisation rises when a labelled molecule tumbles more slowly, as on binding a larger partner.
`CN(C)C1(CNC(=O)c2cccc(C#N)c2)CCCCC1`: the inhibition is inactive: 1.27%. As for `c1ccc(CN2CCC(Nc3ccccc3)CC2)cc1`, the inhibition was inactive: 0.02%. `CCCN1CCC(Nc2cc(OC)cc(OC)c2)CC1`: the inhibition was inactive: 1.38%. With `N#Cc1ccc(C(=O)NCC2(N3CCCCC3)CCCCC2)cc1` the figure was inactive: -1.45%; with `CC(C)(C)OC(=O)N1CCC(N(C(=O)c2ccccc2)c2ccc(Cl)cc2)CC1`, inactive: 0.73%. `O=C(OC1CN2CCC1CC2)C1c2ccccc2C=Cc2ccccc21` (stereo unspecified): the inhibition is inactive: 2.27%. The same measure for `CCc1cc(C(=O)NCC2(N3CCCCC3)CCCCC2)sc1C`: inactive: 5.74%; for `CCOC(=O)N1CCC(Nc2ccc(C)cc2)CC1`: inactive: 2.89%. As to `N/C(=N\O)c1c(N)no[n+]1[O-]`, the inhibition is inactive: -12%. Regarding `COc1ccc(C(=O)NCC2(N3CCOCC3)CCCCC2)cc1OC`, the inhibition is inactive: 3.34%. With `O=C(NCC1(N2CCOCC2)CCCCC1)c1cc(Br)ccc1Cl` the figure was inactive: 3.89%; with `CN1CCC(Nc2ccc(Cl)cc2)CC1`, inactive: -3.53%. Consider `CCCOc1ccc(C)cc1CN(CCCl)CCCl`, for which the inhibition was inactive: -1.86%. Regarding `COc1cc(OC)cc(C(=O)NCC2(N3CCOCC3)CCCCC2)c1`, the inhibition was inactive: 5.1%.

With `COc1cccc(C(=O)N(c2cc(C)cc(C)c2)C2CCN(C(=O)OC(C)(C)C)CC2)c1`, the inhibition is inactive: -3.56%. For the compound `CCC(CO)(C(=O)OC1CN2CCC1CC2)c1ccccc1` (stereo unspecified), the inhibition is inactive: 3.59%. On to `CC(C)(C)OC(=O)N1CCC(Nc2ccccc2)CC1`, for which the inhibition was inactive: 3.72%. For `O=C(O)C1(Nc2ccccc2)CCN(Cc2ccccc2)CC1`, the inhibition was inactive: 2.17%.

Consider `CCCOc1ccc(C(=O)NCC2(N(C)C)CCCCC2)cc1`, for which the inhibition is inactive: -6.95%. With `CCOc1ncccc1C(=O)NCC1(N2CCOCC2)CCCCC1`, the inhibition is inactive: 3.48%. Consider `CN1CCC(Nc2ccc(F)c(Cl)c2)CC1`, for which the inhibition is inactive: 0.07%. With `O=C(NCC1(N2CCCCC2)CCCCC1)c1ccco1`, the inhibition is inactive: -4.15%. `CN(C)c1ccc(C(=O)NCC2(N3CCCCC3)CCCCC2)cc1`: the inhibition was inactive: 3.53%. `CCN1CCC(Nc2cccc(F)c2)CC1`: the inhibition is inactive: 5.19%. With `Cc1ccc(C(=O)NCC2(N3CCCCC3)CCCCC2)o1`, the inhibition is inactive: 5.69%.

As for `Fc1ccccc1NC1CCN(Cc2ccccc2)CC1`, the inhibition was inactive: -0.36%. In the case of `COc1cc(OC)cc(C(=O)NCC2(N3CCCCC3)CCCCC2)c1`, the inhibition was inactive: 6.94%. Turning to `CCOC(=O)N1CCC(Nc2cccc(C)c2)CC1`, the inhibition is inactive: -0.08%. With `Cc1ccc(OCC(C)C)c(CN(CCCl)CCCl)c1`, the inhibition is inactive: 3.83%.

Take `O=C(NCC1(N2CCCCC2)CCCCC1)c1ccc(F)cc1`: the inhibition is inactive: -0.06%.

For the compound `COc1ccc(NC2CCN(CCc3ccccc3)CC2)c(OC)c1`, the inhibition is inactive: 2.77%. For `CCOc1ccc(C)cc1CN(CCCl)CCCl`, the inhibition is inactive: 2.09%.

As for `O=C(OC1CN2CCC1CC2)C1c2ccccc2Oc2ccccc21` (stereo unspecified), the inhibition was inactive: 3.15%.

Consider `N#CC1(Nc2ccccc2)CCN(Cc2ccccc2)CC1`, for which the inhibition was inactive: -4.9%. Consider `O=C(NCC1(N2CCCCC2)CCCCC1)c1ccc(Cl)s1`, for which the inhibition was inactive: 5.94%. As to `COc1ccc(Cl)cc1C(=O)NCC1(N2CCOCC2)CCCCC1`, the inhibition was inactive: 6.26%. In the case of `CCOC(=O)N1CCC(Nc2ccc(OC)cc2)CC1`, the inhibition is inactive: -1.5%. Turning to `O=C(NCC1(N2CCCCC2)CCCCC1)c1ccc(Cl)nc1`, the inhibition was inactive: 5.42%. Regarding `Cc1cc(C)cc(N(C(=O)c2ccccc2)C2CCN(C(=O)OC(C)(C)C)CC2)c1`, the inhibition was inactive: 7.01%.

With `O=C(NCC1(N2CCOCC2)CCCCC1)c1cc2ccccc2o1`, the inhibition is inactive: 4%.

For the compound `CSc1ccccc1C(=O)NCC1(N2CCCCC2)CCCCC1`, the inhibition was inactive: -1.97%. On to `COc1ccc(C(=O)NCC2(N3CCCCC3)CCCCC2)cc1`, for which the inhibition is inactive: 9.77%. For the compound `COc1ccc(C(=O)NCC2(N3CCCCC3)CCCCC2)c(OC)c1OC`, the inhibition was inactive: -1.46%. On to `CC(C)(C)OC(=O)N1CCC(N(C(=O)c2ccccc2)c2ccc(F)cc2)CC1`, for which the inhibition was inactive: 0.98%. The same measure for `O=C(NCC1(N2CCCCC2)CCCCC1)c1ccc(=O)[nH]c1`: inactive: 11.9%; for `O=C(NCC1(N2CCCCC2)CCCCC1)c1cccs1`: inactive: -0.65%. Consider `O=C(NCC1(N2CCCCC2)CCCCC1)c1cncc(Br)c1`, for which the inhibition is inactive: 6.21%.

Regarding `CN1CCC(Nc2cccc(F)c2)CC1`, the inhibition was inactive: 5.94%. In the case of `COc1cc(OC)c(C(=O)NCC2(N(C)C)CCCCC2)cc1OC`, the inhibition is inactive: -0.91%.

Take `CC(C)c1ccc(NC2CCN(C(=O)OC(C)(C)C)CC2)cc1`: the inhibition is inactive: 2.9%. For `COc1ccc(CN(CCCl)CCCl)cc1Cl`, the inhibition is inactive: 3.58%. Consider `CN(C)c1cccc(C(=O)NCC2(N3CCCCC3)CCCCC2)c1`, for which the inhibition is inactive: -2.2%.

In the case of `COc1cc(C(=O)NCC2(N3CCCCC3)CCCCC2)ccc1OC(F)F`, the inhibition is inactive: -2.37%. Turning to `O=C(NCC1(N2CCOCC2)CCCCC1)c1cc(=O)[nH]c2ccccc12`, the inhibition was inactive: -5.35%. As to `CN1CCN(CCOC(=O)C(O)(c2ccccc2)c2ccccc2)CC1`, the inhibition is inactive: 1.13%.

Regarding `COc1ccc(NC2CCN(C(=O)OC(C)(C)C)CC2)cc1`, the inhibition is inactive: 2.05%. Regarding `O=C(NCC1(N2CCCCC2)CCCCC1)c1cccc(C(F)(F)F)c1`, the inhibition is inactive: 3.23%. Consider `CCN1CCC(Nc2ccc(Cl)cc2)CC1`, for which the inhibition was inactive: -1.24%.

In the case of `N#CC1(Nc2ccccc2)CCN(CCc2ccccc2)CC1`, the inhibition is inactive: 2.72%. `O=C(NCC1(N2CCCCC2)CCCCC1)c1cccc([N+](=O)[O-])c1`: the inhibition is inactive: 1.62%. With `O=C(NCC1(N2CCCCC2)CCCCC1)c1ccc(OC(F)F)cc1`, the inhibition was inactive: -3.25%.
